Values of other authors, collected in patent US12527768B2, “Compositions comprising an anti-inflammatory drug and a dicer activator for use in the treatment of neuronal diseases” (NeuroSense Therapeutics Ltd., priority 2017, dated 2026).

Test system: ALS patients
Settings: clinical trial; cited from earlier work

SMILES: Nc1nc2ccc(OC(F)(F)F)cc2s1 [Riluzole]
- increase in survival in treated participants: 2-3 months
